# Measurements reported in PubChem BioAssay AID463104 (Sanford-Burnham Center for Chemical Genomics, 2010).
# This is a selection; strong and weak results do not stand in their true shares. Calls of active or inactive are those of the source.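 How the source made its calls: active means versus positive control, 20 µM dose yields 30% or more activation; inactive means the rest.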
# Assay: activators of adaptive XBP1 UPR arm, primary screen, cell-based, CHO-XBP1 luciferase reporter, luminescence, uHTS (AID 463104);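 further: 100% = tunicamycin at 10 µg/mL and 0% = DMSO only wells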
# Details: IRE1-XBP1 UPR activation, at 20 µM, hits give high values, percent of tunicamycin response, DMSO as zero
# Outline: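 Material: IRE1-XBP1 luciferase reporter CHO line / Quantity: one thousand reporter cells per well / Buffer or medium: F12 with 10% serum / Compound: 20 µM single concentration, DMSO 1% / Times: 6 h treatment, 37 °C / Detection: Steady-Glo luciferase glow luminescence, 10 min after reagent addition / Benchmarks: tunicamycin high, DMSO low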
row,SMILES,activation
1,CCOC(=O)Nc1ccc([As](=O)(O)O)c(O)c1,inactive: -0.46%
2,CCCCOc1ccc(C(=O)NCC2(N3CCCCC3)CCCCC2)cc1OC,inactive: -2.56%
3,Cc1cc(SC(NC(=O)c2ccccc2)C(Cl)(Cl)Cl)nc(C(C)C)n1 (centres undefined),inactive: -1.45%
4,CCOC(=O)Nc1cccc([As](=O)(O)O)c1,inactive: 0.1%
5,O=P(Nc1ccccn1)(c1cccc2ccccc12)c1cccc2ccccc12,inactive: -3.82%
6,Cc1cc(SC(NC=O)C(Cl)(Cl)Cl)ncn1 (centres undefined),inactive: 1%
7,COP1(=S)c2c(C)nn(CCC#N)c2N=C(c2ccc(F)cc2)N1C (centres undefined),inactive: -3.04%
8,O=C(COc1ccccc1)OC1CN2CCC1CC2 (centres undefined),inactive: 0.81%
9,O=C(Nc1ccncc1[N+](=O)[O-])c1ccc([N+](=O)[O-])cc1[N+](=O)[O-],inactive: -4.79%
10,O=C(OC1CN2CCC1CC2)c1cccc([N+](=O)[O-])c1 (centres undefined),inactive: -0.21%
11,CCOC(=O)c1ccc(NC(=O)C(C)(CCl)SC)cc1 (centres undefined),inactive: 2.45%
12,CCC(C)N(CC(C)C)C(=S)SC(NC(C)=O)C(Cl)(Cl)Cl (centres undefined),inactive: -0.36%
13,Cc1c2c(nc3ccccc13)SC(C(Cl)Cl)C2 (centres undefined),inactive: 3.09%
14,O=C(OC1CN2CCC1CC2)C12CC3CC(CC(C3)C1)C2 (centres undefined),inactive: -2.07%
15,Cc1cc(=O)[nH]c(N[N+](=O)[O-])n1,inactive: 1.77%
16,COc1ccc2nc(NP(=O)(c3ccccc3)c3ccccc3)sc2c1,inactive: -3.23%
17,COc1cc(I)ccc1[As](=O)(O)O,inactive: 1.15%
18,COc1ccc(N/C(=N/P(=O)(N2CCOCC2)N2CCOCC2)N2CCOCC2)cc1,inactive: -2.94%
19,C[As](=O)(O)c1cccc(C(=O)O)c1,inactive: -2.69%
20,O=[As](O)(c1ccc(O)cc1)c1ccccc1O,inactive: 0.19%
21,COc1cc(C(=O)NCC2(N3CCOCC3)CCCCC2)ccc1OCC(C)C,inactive: 1.45%
22,Cc1ccc(OP(=O)(Nc2ccc([N+](=O)[O-])cn2)Oc2ccc(C)cc2)cc1,inactive: -2.21%

row,SMILES,activation
1,Cc1ccc2nc3c(c(C)c2c1)CC(C(Cl)Cl)S3 (centres undefined),inactive: 7.87%
2,ClCCSc1nnc(-c2cccnc2)o1,inactive: -1.52%
3,CC(C)c1ccc(OP(=O)(Nc2ccccn2)Oc2ccccc2F)cc1 (centres undefined),inactive: 5.75%
4,CCN(CC)C(=S)SC(NC=O)C(Cl)(Cl)Cl (centres undefined),inactive: -1.17%
5,O=C(OC1CN2CCC1CC2)c1cccc2[nH]cnc12 (centres undefined),inactive: -4.74%
6,CC(C)NC(=O)NP(=O)(Oc1ccccc1)Oc1ccccc1,inactive: 4.01%
7,O=[N+]([O-])c1cc([N+](=O)[O-])c(-c2ccn[nH]2)s1,inactive: -1.02%
8,CCOP1(=S)c2c(C)nn(CCC#N)c2N=C(c2ccccc2F)N1C (centres undefined),inactive: -3.04%
9,O=P(Nc1nccs1)(c1ccccc1)c1nc2ccccc2s1 (centres undefined),inactive: 3.21%
10,O=P(Nc1nccs1)(Oc1ccccc1)Oc1ccccc1,inactive: 3.1%
11,CS(=O)(=O)c1cc([N+](=O)[O-])c2no[n+]([O-])c2c1,inactive: -0.26%
12,Nc1ccccc1[As](=O)(O)c1ccccc1,inactive: -1.86%
13,O=C(O)COc1ccc([As](=O)(O)O)cc1[N+](=O)[O-],inactive: -2.23%
14,NC(=O)Nc1ccc([As](=O)(O)O)cc1,inactive: 0.4%
15,N#CCCN(C(=O)COC(=O)C(O)(c1ccccc1)c1ccccc1)c1ccc(F)cc1,inactive: 1.57%
16,CCOP1(=S)c2c(C)nn(CCC#N)c2N=C(c2ccc(F)cc2)N1C (centres undefined),inactive: 0.17%
17,CN(C(=O)Cc1ccccc1)[C@@H]1CC[C@]2(CCCO2)C[C@H]1N1CCCC1,inactive: -3.05%
18,CN(C)C(=O)c1cc([N+](=O)[O-])cc2c1-c1c(cc([N+](=O)[O-])cc1[N+](=O)[O-])C2=O,inactive: -11.2%
19,O=[N+]([O-])c1ccc2c(c1)nnn2O,inactive: -2.37%
20,CN(C(=O)Cc1ccc(Cl)c(Cl)c1)[C@H]1CC[C@@]2(CCCO2)C[C@@H]1N1CCCC1,inactive: -7.78%
21,O=C(OC1CN2CCC1CC2)c1ccc(Cl)cc1 (centres undefined),inactive: 2.25%
22,COc1cc(C(=O)NCC2(N3CCOCC3)CCCCC2)cc(Cl)c1OC(C)C,inactive: -2.19%

row,SMILES,activation
1,O=[As](O)(O)c1cccnc1,inactive: 0.55%
2,CS(=O)(=O)c1ccc(Cl)c(NC(=O)COC(=O)C(O)(c2ccccc2)c2ccccc2)c1,inactive: -4.56%
3,O=[As](O)(c1cccc(O)c1)c1cccc(O)c1,inactive: -0.77%
4,Cc1cccc(OCC(=O)OC2CN3CCC2CC3)c1 (centres undefined),inactive: -4.71%
5,Cc1ccc(NCCc2c([N+](=O)[O-])cc([N+](=O)[O-])cc2[N+](=O)[O-])cc1,inactive: -2.48%
6,CCCOP(=S)(Nc1nc(N)cc(=O)[nH]1)OCCC,inactive: -2%
7,COc1cc(C2NCCC3(OCCO3)C2(C)C)cc(OC)c1OC (centres undefined),inactive: -1.35%
8,CCOP(=O)(Nc1cccc2ccccc12)OCC,inactive: 0.84%
9,O=P1(Nc2ccccn2)COc2ccccc2OC1,inactive: -0.8%
10,CCC1=CC2Cc3nc4ccc(Cl)cc4c(N)c3C(C1)C2 (centres undefined),inactive: -3.86%
11,CCOP(=O)(NC(=NC(C)c1ccccc1)NC(C)c1ccccc1)OCC (centres undefined),inactive: -2.58%
12,CN(CCCl)Cc1cc(Cl)c(NC2=NCCN2)c(Cl)c1,inactive: -7.3%
13,CCOP(=O)(Nc1ccc(C)cn1)OCC,inactive: -2.85%
14,Clc1n[nH]nc1-c1nn[nH][15n]1,inactive: 2.67%
15,CC(C)(C)C(=O)NC(Sc1ncccn1)C(Cl)(Cl)Cl (centres undefined),inactive: 1.59%
16,COc1ccccc1CNC(=O)COC(=O)C(O)(c1ccccc1)c1ccccc1,inactive: -1.35%
17,CC(C)/C=N\N=C(\N)N[N+](=O)[O-],inactive: 1.28%
18,CN(C(=O)Cc1ccc(Cl)c(Cl)c1)[C@@H]1CCCC[C@H]1N1CCCC1,inactive: -8.14%
19,O=[As](O)(c1ccccc1Br)c1ccccc1Br,inactive: -1.25%
20,CC1(CBr)Cn2c(nc3ccccc3c2=O)S1 (centres undefined),inactive: -0.84%
